# This is one part of the list. Records with an inconclusive call do not appear. Activity calls are given as the source filed them. The call rests on the fitted dose curve.
# Sequences of proteins named here, by UniProt entry; tags and fusion partners are left off.
# UniProt Q14974, whole entry: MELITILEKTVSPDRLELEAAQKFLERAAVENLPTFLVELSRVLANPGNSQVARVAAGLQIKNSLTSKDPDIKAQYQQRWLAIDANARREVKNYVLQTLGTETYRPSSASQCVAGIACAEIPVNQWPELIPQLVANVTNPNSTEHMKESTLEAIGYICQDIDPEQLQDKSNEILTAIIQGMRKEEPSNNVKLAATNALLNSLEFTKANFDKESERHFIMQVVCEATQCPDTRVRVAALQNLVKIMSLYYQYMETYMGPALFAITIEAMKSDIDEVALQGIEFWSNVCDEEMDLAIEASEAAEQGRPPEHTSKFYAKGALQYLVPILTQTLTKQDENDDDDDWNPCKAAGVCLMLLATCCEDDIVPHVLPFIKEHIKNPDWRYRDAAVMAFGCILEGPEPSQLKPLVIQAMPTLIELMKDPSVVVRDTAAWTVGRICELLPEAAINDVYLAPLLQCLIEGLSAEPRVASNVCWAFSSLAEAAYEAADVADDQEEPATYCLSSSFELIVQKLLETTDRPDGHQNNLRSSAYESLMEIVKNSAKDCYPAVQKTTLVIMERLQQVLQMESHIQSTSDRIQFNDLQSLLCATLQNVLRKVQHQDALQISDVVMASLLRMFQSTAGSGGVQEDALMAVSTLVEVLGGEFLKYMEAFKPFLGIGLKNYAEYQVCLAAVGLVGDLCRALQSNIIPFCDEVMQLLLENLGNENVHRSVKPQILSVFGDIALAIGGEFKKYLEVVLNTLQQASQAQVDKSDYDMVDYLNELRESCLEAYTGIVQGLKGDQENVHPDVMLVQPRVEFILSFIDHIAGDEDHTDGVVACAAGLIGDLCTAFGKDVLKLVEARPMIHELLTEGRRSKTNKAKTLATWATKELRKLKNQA
# UniProt O95149, whole entry partner: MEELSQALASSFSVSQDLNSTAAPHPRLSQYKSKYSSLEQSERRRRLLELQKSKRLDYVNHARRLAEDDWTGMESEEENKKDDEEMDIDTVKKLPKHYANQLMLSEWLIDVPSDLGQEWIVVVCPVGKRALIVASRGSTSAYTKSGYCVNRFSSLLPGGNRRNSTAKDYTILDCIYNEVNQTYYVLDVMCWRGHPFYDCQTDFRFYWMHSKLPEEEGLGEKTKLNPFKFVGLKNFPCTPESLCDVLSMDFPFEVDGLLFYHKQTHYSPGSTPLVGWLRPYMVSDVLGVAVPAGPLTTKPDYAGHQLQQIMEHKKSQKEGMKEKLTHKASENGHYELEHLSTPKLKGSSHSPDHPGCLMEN
# Molecular target: Importin subunit beta-1 (Homo sapiens) (UniProt Q14974)
# Test: qHTS Assay for Inhibitors of Rango (Ran-regulated importin-beta cargo) - Importin beta complex formation;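 further: 0% = DMSO wells and 100% = buffer wells lacking importin beta; nearly all actives have a fitted effect of over 15% in size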
# Conditions: Rango CFP/YFP FRET sensor + importin beta, 45 min; at 92.2 µM (top of the series)
# Text: NIH Molecular Libraries Probe Production Centers Network [MLPCN] NIH Chemical Genomics Center [NCGC] MLPCN Grant: R03 MH090808-01A1 Assay Submitter (PI): Petr Kalab NCGC Assay Overview: The small GTPase Ran regulates transport of macromolecules between the nucleus and the cytoplasm (nuclear transport) and has important functions in mitotic spindle assembly, nuclear envelope (NE) formation and nuclear pore complex (NPC) assembly. RanGTP gradient is thought to promote spindle assembly by providing a spatial clue to microtubule nucleation and Aurora A activation. Because the localized release and binding of importin alpha cargo relays this spatial clue to SAFs, inhibitors of the Rango - importin beta complex can then be used in further understanding their role in cell cycle specifically in mitosis progression. […] Activation of Aurora A has been linked to different types of cancer and a number of Aurora kinase inhibitors are being developed as potential canter therapeutics therefore, identified inhibitors of this complex could be developed into potential anti-mitotic probes for cancer treatment. Purified recombinant proteins Rango and importin beta were provided by the assay submitter. The assay used a fluorescence resonance energy transfer (FRET) Rango biosensor that contains the IBB of human snurportin 1 flanked by yellow fluorescent protein (EYFP) at the amino terminus and cerulean CFP10 at the carboxy terminus. […] Inhibitors will therefore be identified based on the ability to interfere with the FRET signal decrease. DMSO treated and no importin beta (buffer only) wells were used as negative and positive controls respectively. FRET readings were obtained at two time points. FRET reading prior to importin beta addition (pre-read) were used flag potential compound interference; FRET reading after importin beta addition (post-read) were used to identify inhibitors using the FRET ratio parameter.
# NCGC Assay Protocol Summary: Two and a half uL/well of Rango-buffer solution (50 nM Rango, 1x PBS, 1mM DTT, 0.02% Tween-20, 0.1% BSA final concentrations) was dispensed into 1536-well assay plates (Greiner, solid black medium-binding plates) with Aurora Discovery BioRAPTR Flying Reagent Dispenser (FRD; Beckton-Dickenson). Compound solution (23 nL) was transferred to the assay plate using Kalypsys pin tool equipped with a 1536-pin tool and incubated at room temperature for 5 min followed by a FRET pre-read using the PerkinElmer Envision plate reader. Two and a half uL/well of Importin beta - buffer solution (0.125 microM importin beta, 1x PBS, 1mM DTT, 0.02% Tween-20, 0.1% BSA final concentrations) were then added and incubated at room temperature giving a final reaction volume of 5uL. After 45min FRET post-read was obtained via the Envision plate reader using the same optics and settings as the pre-read (CFP/YFP optimized dual optical module D450/D505; excitation mirror CFP 430/24 nm; and emission filters CFP 486/10 nm and YFP 530/10 nm).
row,SMILES,inhibition of complex formation
1,CN1CCCCC1COC(=O)C1(O)c2ccccc2CCc2ccccc21 (stereo unspecified),inactive: 1.82%
2,COc1ccccc1OP(C)(=O)Nc1c(C)cccc1C (stereo unspecified),inactive: 0.688%
3,O=P1(Nc2ncccn2)COc2ccccc2OC1,inactive: 2.58%
4,O=[As](O)(c1cccs1)c1cccs1,inactive: 4.78%
5,Cc1ccc(OCC(=O)OC2CN3CCC2CC3)cc1 (stereo unspecified),inactive: -0.173%
6,NS(=O)(=O)c1cccc(NC(=O)COC(=O)C(O)(c2ccccc2)c2ccccc2)c1,inactive: -1.19%
7,O=P1(Nc2ccc(Br)cn2)COc2ccccc2OC1,inactive: 4.08%
8,CCCOc1ccc(NP(C)(=O)Oc2ccc(Cl)cc2)cc1 (stereo unspecified),inactive: -1.95%
9,Nc1cccc([As](=O)(O)c2ccccc2)c1,inactive: 2.04%
10,CP(=O)(Nc1ccc(SC(F)(F)F)cc1)Oc1ccccc1 (stereo unspecified),inactive: 2.88%
11,COc1cc(C2NCCC3(OCCO3)C2(C)C)cc(OC)c1OC.O=[N+]([O-])c1cc([N+](=O)[O-])c(O)c([N+](=O)[O-])c1 (stereo unspecified),inactive: 0.833%
12,Cc1nn(-c2ccccc2)c2c1P(=O)(N1CCOCC1)N(C)C(c1ccccc1)=N2 (stereo unspecified),inactive: 1.03%
13,Cc1ccc(C(=O)OC2CN3CCC2CC3)cc1 (stereo unspecified),inactive: -0.194%
14,CC1CCC(C(C)C)C(OP(=O)(Nc2ccccn2)c2ccccc2)C1 (stereo unspecified),inactive: 2.73%
15,O=C(/C=C/c1ccccc1)OC1CN2CCC1CC2 (stereo unspecified),inactive: 4.4%
16,CCCC1OP(=O)(Nc2ccccc2)OCC1CC (stereo unspecified),inactive: 0.754%
17,CC1=C2N=C(C=C3N=C(C(C)=C4[N-][C@@](C)([C@@H]5N=C1[C@](C)(CCC(=O)NC[C@@H](C)OP(=O)([O-])O[C@H]1[C@@H](O)[C@@H](n6cnc7cc(C)c(C)cc76)O[C@@H]1CO)[C@H]5CC(N)=O)[C@@](C)(CC(N)=O)[C@@H]4CCC(N)=O)[C@@](C)(CC(N)=O)[C@@H]3CCC(N)=O)C(C)(C)[C@@H]2CCC(N)=O.[C-]#N.[Co+3],inactive: -1.29%
18,CN(C)C1(CNC(=O)c2ccc(S(C)(=O)=O)cc2)CCCCC1,inactive: 6.35%
19,O=[N+]([O-])c1cc([N+](=O)[O-])c(Nc2nnnn2CCO)c([N+](=O)[O-])c1,inactive: 5.46%

row,SMILES,inhibition of complex formation
1,COc1ccccc1CNC(=O)COC(=O)C(O)(c1ccccc1)c1ccccc1,inactive: 1.66%
2,O=[N+]([O-])c1cc([N+](=O)[O-])c(-c2cnn(-c3ccccc3)c2)c([N+](=O)[O-])c1,inactive: 0.0779%
3,Cc1nc2ccc3ccccc3c2s1.O=[N+]([O-])c1cc([N+](=O)[O-])c(O)c([N+](=O)[O-])c1,inactive: 3.83%
4,CC1(CBr)Cn2c(nc3ccccc3c2=O)S1 (stereo unspecified),inactive: -0.0418%
5,CN(C(=O)Cc1ccc(Cl)c(Cl)c1)[C@@H]1CCCC[C@H]1N1CCCC1,inactive: -1.73%
6,CC(C)/C=N\N=C(\N)N[N+](=O)[O-],inactive: -2.96%
7,CCOP(=O)(Nc1ccc(C)cn1)OCC,inactive: 1.68%
8,CN(CCCl)Cc1cc(Cl)c(NC2=NCCN2)c(Cl)c1,inactive: 4.54%
9,CCC1=CC2Cc3nc4ccc(Cl)cc4c(N)c3C(C1)C2 (stereo unspecified),inactive: 2.18%
10,O=P1(Nc2ccccn2)COc2ccccc2OC1,inactive: -0.449%
11,O=[N+]([O-])c1cc([N+](=O)[O-])c(-n2nnc3ccccc32)c([N+](=O)[O-])c1,inactive: 0.372%
12,CCOP(=O)(NC(=NC(C)c1ccccc1)NC(C)c1ccccc1)OCC (stereo unspecified),inactive: -0.394%
13,CC(C)(C)C(=O)NC(Sc1ncccn1)C(Cl)(Cl)Cl (stereo unspecified),inactive: -3.44%
14,Cc1ccc(C)c(NP(C)(=O)Oc2ccccc2)c1 (stereo unspecified),inactive: -0.308%
15,Cc1cc(C)cc(OP(C)(=O)Nc2ccccn2)c1 (stereo unspecified),inactive: -2.57%
16,CP(=O)(Nc1cccc(Br)c1)Oc1ccccc1 (stereo unspecified),inactive: 0.502%
17,Nc1cccc2c([As](=O)(O)O)cccc12,inactive: 0.209%
18,Cc1ccc(NCCc2c([N+](=O)[O-])cc([N+](=O)[O-])cc2[N+](=O)[O-])cc1,inactive: 0.339%
19,CCOP(=O)(Nc1cccc2ccccc12)OCC,inactive: -0.441%

row,SMILES,inhibition of complex formation
1,O=[As](O)(O)c1cccnc1,inactive: 4.52%
2,COc1cc(C(=O)NCC2(N3CCOCC3)CCCCC2)cc(Cl)c1OC(C)C,inactive: 0.309%
3,CS(=O)(=O)c1ccc(Cl)c(NC(=O)COC(=O)C(O)(c2ccccc2)c2ccccc2)c1,inactive: 1.08%
4,COc1ccccc1OP(C)(=O)Nc1cccc(Br)c1 (stereo unspecified),inactive: -6.73%
5,O=C(OC1CN2CCC1CC2)c1ccc(Cl)cc1 (stereo unspecified),inactive: 0.704%
6,CCOC(=O)c1ccc(NP(C)(=O)Oc2cc(C)cc(C)c2)cc1 (stereo unspecified),inactive: -3.16%
7,Cc1cccc(OCC(=O)OC2CN3CCC2CC3)c1 (stereo unspecified),inactive: 1.29%
8,O=[As](O)(c1cccc(O)c1)c1cccc(O)c1,inactive: 1.2%
9,Cc1cc(C)cc(OP(C)(=O)Nc2ccc(C)cc2C)c1 (stereo unspecified),inactive: 4.75%
10,NC(=O)Nc1ccc([As](=O)(O)O)cc1,inactive: 7.55%
11,O=[N+]([O-])c1ccc2c(c1)nnn2O,inactive: -2.83%
12,CN(C)C(=O)c1cc([N+](=O)[O-])cc2c1-c1c(cc([N+](=O)[O-])cc1[N+](=O)[O-])C2=O,inactive: -2.3%
13,CC1=NCCc2c1[nH]c1ccccc21.O=[N+]([O-])c1cc([N+](=O)[O-])c(O)c([N+](=O)[O-])c1,inactive: 1.24%
14,CN(C(=O)Cc1ccc(Cl)c(Cl)c1)[C@H]1CC[C@@]2(CCCO2)C[C@@H]1N1CCCC1,inactive: -3.3%
15,N#CCCN(C(=O)COC(=O)C(O)(c1ccccc1)c1ccccc1)c1ccc(F)cc1,inactive: -3.19%
16,CN(C(=O)Cc1ccccc1)[C@@H]1CC[C@]2(CCCO2)C[C@H]1N1CCCC1,inactive: 0.288%
17,CCOP1(=S)c2c(C)nn(CCC#N)c2N=C(c2ccc(F)cc2)N1C (stereo unspecified),inactive: 2.79%
18,CCOP1(=S)c2c(C)nn(CCC#N)c2N=C(c2ccccc2F)N1C (stereo unspecified),inactive: 0.61%

# Reference: PubChem BioAssay AID540263 (National Center for Advancing Translational Sciences (NCATS), 2011)
